Tested on: isolated soleus muscle from rats
Assay: amylin antagonist assay: incorporation of radiolabelled glucose into glycogen in isolated soleus muscle
Type: cell-based, rat
Conditions: 1000 μU/mL insulin, 20 nM amylin, antagonist 1 nM-10 μM
Experimental: Insulin was obtained as Humulin-R, 100 U/mL, recombinant human insulin (Eli Lilly, Indianapolis, Ind.). […] An antagonist assay was performed in vitro using the isolated soleus muscle from rats.
The right and left soleus muscles of 4-hour fasted rats were removed immediately after decapitation of the animals, divided in half and temporarily placed in physiological saline. Muscles were assigned to different treatment groups so that the 4 muscle pieces from each animal were evenly distributed among the 9 flasks representing the different assay conditions. […] Pharmacologically active agents were added to the 10mL of medium to result in the above stated concentrations and mixtures. […]
Dissolved glycogen was precipitated out by addition of 3 mL absolute ethanol and cooling to -20° C. overnight. […] The remaining glycogen was redissolved in water and scintillation fluid and counted for ^14 C.
From a knowledge of the specific activity of ^14 C-glucose in the 5.5 mM glucose of the incubation medium, and the total ^14 C counts remaining in the glycogen extracted from each muscle, it was possible to determine the net rate of glycogen synthesis over the final 60 minute incubation period. This was normalized per mass of muscle and expressed as μmoles of glucosyl units incorporated into glycogen per hour per gram of muscle. […]

In the case of `CC(C)C[C@H](NC(=O)CNC(=O)[C@H](C)NC(=O)[C@H](CC(C)C)NC(=O)[C@H](CCCNC(=N)N)NC(=O)[C@H](Cc1c[nH]cn1)NC(=O)[C@@H](NC(=O)[C@@H](N)C(C)C)[C@@H](C)O)C(=O)N[C@@H](CC(C)C)C(=O)N[C@@H](CO)C(=O)N[C@@H](CCCNC(=N)N)C(=O)N[C@@H](CO)C(=O)NCC(=O)NCC(=O)N[C@H](C(=O)N[C@H](C(=O)N[C@@H](CCCCN)C(=O)N[C@@H](CC(N)=O)C(=O)N[C@@H](CC(N)=O)C(=O)N[C@@H](Cc1ccccc1)C(=O)N[C@H](C(=O)N1CCC[C@H]1C(=O)N[C@H](C(=O)N[C@@H](CC(N)=O)C(=O)N[C@H](C(=O)NCC(=O)N[C@@H](CO)C(=O)N[C@@H](CCCCN)C(=O)N[C@@H](C)C(=O)N[C@@H](Cc1ccccc1)C(N)=O)C(C)C)[C@@H](C)O)C(C)C)C(C)C)C(C)C` [CGRP8-37, 8-37 human CGRP], the “increment in the rate of glycogen synthesis from the amylin-inhibited level” value is reported as “about 115%”.

Reference: patent publication US5280014A, “Treatment of obesity and essential hypertension and related disorders” (Amylin Pharmaceuticals, Inc., priority 1991, dated 1994)
